Assay results taken from ChEMBL document CHEMBL1132720 (J Med Chem, 1999).
Active and inactive are the calls of the source. The rule behind the calls is not given here.

Chains of the proteins cited; added tags and fusions are not shown. Lines headed by an entry give the natural chain unless they say otherwise; changes in a name come on top.
UniProt P49652: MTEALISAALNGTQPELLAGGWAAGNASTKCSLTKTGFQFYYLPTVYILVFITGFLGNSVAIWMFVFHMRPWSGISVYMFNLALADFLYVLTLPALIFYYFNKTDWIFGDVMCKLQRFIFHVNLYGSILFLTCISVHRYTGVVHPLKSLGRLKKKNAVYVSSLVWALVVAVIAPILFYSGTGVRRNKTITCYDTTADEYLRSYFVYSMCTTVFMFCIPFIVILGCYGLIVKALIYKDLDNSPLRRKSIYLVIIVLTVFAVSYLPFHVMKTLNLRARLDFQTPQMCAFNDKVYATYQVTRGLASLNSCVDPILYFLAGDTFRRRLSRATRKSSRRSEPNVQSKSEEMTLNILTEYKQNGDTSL

Molecular target: P2Y purinoceptor 1 (Meleagris gallopavo) (UniProt P49652)
Assay: In vitro agonist activity at P2Y1 receptor in turkey erythrocyte membranes; No effect at 100 uM.
Type: functional, cell membranes

CNc1ncnc2c1ncn2[C@H]1C[C@H](OP(=O)(O)O)[C@@H](COP(=O)(O)O)O1
Increase: inactive
